{
  "source": "paper PMC12670160",
  "about": "“A drug-repurposing screen of FDA- and EMA-approved drugs identifies two NF-κB inhibitors active against eumycetoma” (Journal of Antimicrobial Chemotherapy, 2025)",
  "note": "What follows is the remainder of the data, with few or none of the strong results.",
  "data": [
    {"tested_on": "M. mycetomatis strain mm55", "conditions": "m. mycetomatis hyphae, 96 h, 2 µM", "units": {"% viability": "%"}, "values": [
      {"molecule": "OC[C@H]1OC(O)[C@H](F)[C@@H](O)[C@H]1O", "note": "(stereo partly shown) [ONC0004665, 2deoxy2fluorodgalactose]", "% viability": 106.8}
    ]}
  ]
}
